Test results: PubChem BioAssay AID1469 (National Center for Advancing Translational Sciences (NCATS), 2008)
Only a part is listed here, and it is no random draw. The source made the active and inactive calls. Calls come from the whole dose curve; as a rule, active = well fitted inhibition curve with a large enough effect; inconclusive = small, poorly fitted or top-dose-only effect, or effect the other way; inactive = flat fitted curve, though single readings scatter.

Amino acid sequences for entries named in this document (tags omitted).
UniProt P10828, whole entry: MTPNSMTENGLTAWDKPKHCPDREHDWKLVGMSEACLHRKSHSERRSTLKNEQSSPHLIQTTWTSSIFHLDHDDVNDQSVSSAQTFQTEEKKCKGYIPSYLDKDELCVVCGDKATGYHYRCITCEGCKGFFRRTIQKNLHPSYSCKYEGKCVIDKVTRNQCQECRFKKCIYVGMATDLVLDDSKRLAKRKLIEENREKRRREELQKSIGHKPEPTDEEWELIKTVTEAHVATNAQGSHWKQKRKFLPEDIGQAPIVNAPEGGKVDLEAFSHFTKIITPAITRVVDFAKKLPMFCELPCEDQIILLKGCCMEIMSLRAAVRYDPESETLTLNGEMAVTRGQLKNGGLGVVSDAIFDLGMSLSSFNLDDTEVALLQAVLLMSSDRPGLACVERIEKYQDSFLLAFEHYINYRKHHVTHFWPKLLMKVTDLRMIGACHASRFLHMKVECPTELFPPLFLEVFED

Biological target: Thyroid hormone receptor beta (Homo sapiens) (UniProt P10828)
Assay: qHTS for Inhibitors of the Interaction of Thyroid Hormone Receptor and Steroid Receptor Coregulator 2;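 note: plate controls were bound peptide for no effect and peptide without receptor for full effect; nearly all actives have a fitted effect of over 50% in size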
Details: TRbeta-SRC2 peptide binding, fluorescence polarization, receptor liganded with 1 µM T3
Description: NIH Molecular Libraries Probe Production Network [MLPCN]
NIH Chemical Genomics Center [NCGC]
Assay Provider: R. Kip Guy, St. Jude Children's Research Hospital
Thyroid receptor (TR) regulates many homeostatic processes including basal metabolism, cardiovascular function, body weight, and lipid trafficking. TR modulators are potential therapeutics for obesity and hyperlipidemias but current thyroid analogs have undesirable side effects, particularly cardiac stimulation. To identify inhibitors that specifically prevent the interaction of TR with the steroid receptor coregulator 2 (SRC2), a fluorescence polarization assay was screened. This assay detects interaction of the ligand-binding domain of human TRb with a Texas Red labeled SRC2 peptide, corresponding to a 20 amino acid region of the nuclear receptor interaction domain (Arnold et al., 2006). Small molecule inhibitors that block the interaction of TR and SRC2 are detected by a decrease in fluorescence polarization.
Arnold, L. A.; Estebanez-Perpina, E.; Togashi, M.; Shelat, A.; Ocasio, C. A.; McReynolds, A. C.; Nguyen, P.; Baxter, J. D.; Fletterick, R. J.; Webb, P.; Guy, R. K. A high-throughput screening method to identify small molecule inhibitors of thyroid hormone receptor coactivator binding. Sci STKE 2006, p 13.
NCGC Assay Protocol Summary:
For screening, 5 uL/well 0.6 uM TRb and 20 nM SRC2 Texas Red in protein buffer (20mM Tris hydrochloride, 100mM NaCl, 10% glycerol, 1mM EDTA, 0.01% NP-40, 1mM DTT, 1uM T3 and 5% DMSO) was dispensed into black solid 1536-well plates (Grenier) using a solenoid-based dispenser. Following transfer of 23 nL compound or DMSO vehicle by a pin tool, the plates were centrifuged 15 s at 1000 RPM and incubated 5 hr at ambient temperature. […] Data were normalized to unbound (all components except TRb) and bound SRC2 Texas Red controls. In this assay, we provide % activity data for each concentration as well as potencies for the active compounds.
Keywords: NIH Roadmap, MLPCN, MLI, MLSMR, qHTS, NCGC, qHTS, thyroid hormone receptor, steroid receptor coactivator, fluorescence polarization

SMILES	activity change, negative = inhibition (at 106 µM (top of the series))	activity change, negative = inhibition (at 53 µM (top of the series))
O=C(O)C1(O)c2ccccc2-c2ccccc21	inactive: -4.74%	–
CC(C)(C)c1ccc(OP(C)(=O)Nc2ccc(SC(F)(F)F)cc2)cc1 (centres undefined)	inactive: 0.775%	–
Cc1cccc(C)c1OP(C)(N)=O (centres undefined)	inactive: 1.36%	–
O=C(O)C(O)(c1ccccc1)c1ccccc1	inactive: 4.38%	–
O=[N+]([O-])c1ccc2c(c1)C=Nc1ccccc1O2	inactive: 1.44%	–
CCOC(=O)c1ccc(NP(C)(=O)Oc2ccccc2)cc1 (centres undefined)	inactive: -1.13%	–
COc1ccccc1OP(C)(=O)Nc1ccc(C)cc1 (centres undefined)	inactive: -8.26%	–
Cc1ccc(NP(C)(=O)Oc2ccccc2)c(C)c1 (centres undefined)	inactive: 6.17%	–
COc1ccccc1OP(C)(=O)Nc1cc(Cl)ccc1C (centres undefined)	–	inactive: 2.82%
COc1ccc(OP(C)(=O)Nc2cccc(F)c2)cc1 (centres undefined)	inactive: 5.52%	–
Cc1cc(C)cc(OP(C)(N)=O)c1 (centres undefined)	inactive: -6.48%	–
CP(=S)(Nn1cnnc1)Oc1ccccc1 (centres undefined)	inactive: 2.03%	–
COc1ccccc1OP(C)(=O)Nc1ccccc1 (centres undefined)	inactive: -0.708%	–
CP(=O)(Nc1ccccc1Br)Oc1ccccc1 (centres undefined)	inactive: -2.63%	–
Cc1cccc(C)c1OP(C)(=O)Nc1ccc(SC(F)(F)F)cc1 (centres undefined)	inactive: -10.4%	–
CP(=O)(Nc1ccc(SC(F)(F)F)cc1)Oc1ccc(Cl)cc1 (centres undefined)	inactive: -9.13%	–
CP(=O)(Oc1ccccc1)OC(c1ccccc1)C(F)(F)F (centres undefined)	inactive: -2.49%	–
CP(=O)(NC(=O)Nc1ccccc1)Oc1ccccc1 (centres undefined)	inactive: -11%	–
CCc1ccc(OP(C)(=O)N2CCN(c3ccc([N+](=O)[O-])cc3)CC2)cc1 (centres undefined)	inactive: -8.25%	–
Cc1cc(C)cc(OP(C)(=O)Nc2ccc(SC(F)(F)F)cc2)c1 (centres undefined)	inactive: 2.05%	–
CCOP(C)(=S)SCC(=O)NC(C)C(=O)O (centres undefined)	inactive: -20.4%	–
CCOC(=O)c1ccc(NP(C)(=O)Oc2ccc(OC)cc2)cc1 (centres undefined)	inactive: 0.322%	–
CN(C)CCS	inactive: 6.67%	–
CP(=O)(Nc1ccccn1)Oc1ccc(Cl)cc1 (centres undefined)	inactive: 10%	–
O=[N+]([O-])c1cc([N+](=O)[O-])c(-n2nnc3ccccc32)c([N+](=O)[O-])c1	inactive: 3.68%	–
CC(C)N(CCCl)C(C)C	inactive: 0.33%	–
Cc1nc2ccc3ccccc3c2s1.O=[N+]([O-])c1cc([N+](=O)[O-])c(O)c([N+](=O)[O-])c1	inactive: -7.6%	–
O=[N+]([O-])c1cc([N+](=O)[O-])c(Nc2nnnn2CCO)c([N+](=O)[O-])c1	inactive: -1.57%	–
COc1ccccc1OP(C)(=O)Nc1c(C)cccc1C (centres undefined)	inactive: 0.433%	–
